Experiments:
Type in all cases: functional, cell-based
Vasopressin V1a receptor = Vasopressin V1a receptor (Homo sapiens, UniProt P37288); experiment: Agonist activity at human V1A receptor expressed in HEK cells assessed as increase in intracellular calcium flux at 1 uM incubated for 45 mins by Indo1-AM dye based fluorescence assay relative to AVP
[1] = target: T1, Oxytocin receptor (Homo sapiens) (UniProt P30559); experiment: Agonist activity at human OTR receptor expressed in HEK293FT cells incubated for 30 mins by beta-arrestin recruitment assay relative to OT
T1 sequence (whole entry): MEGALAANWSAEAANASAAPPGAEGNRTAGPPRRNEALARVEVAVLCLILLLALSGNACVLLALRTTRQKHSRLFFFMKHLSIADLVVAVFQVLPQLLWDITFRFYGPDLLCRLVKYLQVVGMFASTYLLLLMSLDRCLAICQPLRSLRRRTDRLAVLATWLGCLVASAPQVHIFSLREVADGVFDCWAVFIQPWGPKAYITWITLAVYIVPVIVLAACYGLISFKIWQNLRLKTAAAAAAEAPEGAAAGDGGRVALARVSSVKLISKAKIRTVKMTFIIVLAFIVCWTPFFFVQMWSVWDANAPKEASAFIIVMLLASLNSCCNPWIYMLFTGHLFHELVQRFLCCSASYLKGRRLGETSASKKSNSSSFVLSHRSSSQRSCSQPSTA

Protein sequences, listed by entry. Tags and fused reporters are not part of them.
UniProt P37288, whole entry, looked up: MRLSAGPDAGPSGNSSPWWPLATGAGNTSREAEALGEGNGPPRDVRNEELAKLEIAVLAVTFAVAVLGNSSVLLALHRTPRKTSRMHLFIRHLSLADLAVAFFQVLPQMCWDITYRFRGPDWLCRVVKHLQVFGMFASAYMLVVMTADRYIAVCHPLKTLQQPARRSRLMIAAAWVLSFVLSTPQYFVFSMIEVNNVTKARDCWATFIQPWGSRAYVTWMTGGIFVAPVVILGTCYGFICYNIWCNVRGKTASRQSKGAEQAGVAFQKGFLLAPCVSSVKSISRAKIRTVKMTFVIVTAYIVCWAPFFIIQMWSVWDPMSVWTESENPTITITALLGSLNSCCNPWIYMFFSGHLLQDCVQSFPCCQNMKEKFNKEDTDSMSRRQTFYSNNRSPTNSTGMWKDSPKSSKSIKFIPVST

Vasopressin V2 receptor [2] = target: T2, Vasopressin V2 receptor (Homo sapiens, UniProt P30518); experiment: Agonist activity at human V2 receptor expressed in HEK293FT cells incubated for 30 mins by beta-arrestin recruitment assay relative to AVP
[3] = target: T1, Oxytocin receptor (Homo sapiens); experiment: Agonist activity at human OTR receptor expressed in HEK293FT cells assessed as stimulation of calcium release by Aequorin based assay relative to OT
Vasopressin V2 receptor [4] = target: T2, Vasopressin V2 receptor; experiment: Agonist activity at human V2 receptor expressed in HEK293FT cells assessed as stimulation of calcium release by Aequorin based assay relative to AVP

Emax (Vasopressin V1a receptor) [%] | Emax [1] [%] | Emax (Vasopressin V2 receptor [2]) [%] | Emax [3] [%] | Emax (Vasopressin V2 receptor [4]) [%] | Structure (SMILES)
5 to 10 | – | – | – | – | Cc1cc(C(=O)N2Cc3cnn(C)c3Nc3ccccc32)ccc1CNC(=O)N1CCC[C@H]1C(=S)N(C)C
– | 42 | 8 | 83 | 103 | CC[C@H](C)[C@@H]1NC(=O)[C@H](Cc2ccc(OC)cc2)NC(=O)CCCSC[C@@H](C(=O)N2CCC[C@H]2C(=O)N[C@@H](CC(C)C)C(=O)NCC(N)=O)NC(=O)[C@H](CC(N)=O)NC(=O)[C@H](CCC(N)=O)NC1=O [CARBETOCIN]

— ChEMBL document CHEMBL4196200 (J Med Chem, 2018)
